The test system of the assay is Salmonella enteritidis. Nature of the assay: perlite bio-assay with pure DHAA and vanillin (Example 7). Type of assay: cell-based. Particulars: DHAA (10 μl of 20 mM) if +DA. On the procedure:
Also, one 20 mM stock solution of DHAA was made in acetone. Bioassay test: The test was carried out using 1.5 ml Eppendorf tubes containing 10 mg of fine perlite. Ten μl of each concentration of vanillin was dispensed into four Eppendorf tubes to obtain four replicates of each concentration. Two of these received 10 μl of DHAA. The tubes were left in laminar flow chamber for 3 h to allow evaporation of the acetone. […] To keep the perlite moist during incubation, 10 μl of sterile R.O water was dispensed into each tube. As controls, two tubes received DHAA only and two tubes received R.O water only. The tubes were incubated overnight, and bacterial survival was quantified by plating the content of each tube onto nutrient agar for the bacterial count.

For one compound, Salmonella enteritidis count results are on record in patent US9743675B2, “Antimicrobial composition” (UNIVERSITY OF SURREY, priority 2009, dated 2017).

As to `COc1cc(C=O)ccc1O` [Vanillin, 4-hydroxy-3-methoxybenzaldehyde], the Salmonella enteritidis count entry (vanillin 0.625 mM) is reported as “TMTC” and the Salmonella enteritidis count result (vanillin 1.25 mM) was “TMTC”.
